Experimental data published in US5658908A (priority 1992, dated 1997).
pIC50: −log10 of the molar value.

Sequences of proteins named here, by UniProt entry; tags and fusion partners are left off.
UniProt P33535, whole entry: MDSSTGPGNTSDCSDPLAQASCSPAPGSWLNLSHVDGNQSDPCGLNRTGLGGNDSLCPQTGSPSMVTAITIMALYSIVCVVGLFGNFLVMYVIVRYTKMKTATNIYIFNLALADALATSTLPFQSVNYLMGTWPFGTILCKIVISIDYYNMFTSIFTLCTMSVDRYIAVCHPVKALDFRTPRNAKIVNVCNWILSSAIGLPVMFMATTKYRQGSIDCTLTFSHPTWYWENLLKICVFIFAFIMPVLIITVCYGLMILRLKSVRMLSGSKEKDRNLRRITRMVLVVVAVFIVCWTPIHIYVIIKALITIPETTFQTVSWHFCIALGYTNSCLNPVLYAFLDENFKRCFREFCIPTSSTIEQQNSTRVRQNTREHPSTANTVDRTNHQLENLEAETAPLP

The compounds below were run against T1, Mu Receptor (Rattus norvegicus, UniProt P33535) (assay: Mu receptor binding, rat brain membranes). Settings: 125I-[D-Ala2,N-MePhe4,Met(O)ol5]enkephalin 0.1 nM, 24° C., 60 min, mean of (n) experiments.
T1 construct: Rat (Sprague-Dawley) brain membranes were prepared; from tissue; host or cells: rat (Sprague-Dawley) brain membranes
Design: species or system rat (Sprague-Dawley)
C=CCN1C[C@H](C)N([C@H](c2ccc(C(=O)N(CC)CC)cc2)c2cccc(O)c2)C[C@H]1C (relative stereo) [Example 6, (±)-4-((αR*)-α-((2S*,5R*)-4-Allyl-2,5-dimethyl-1-piperazinyl)-3-hydroxybenzyl)-N,N-diethylbenzamide] was tested, and the pIC50 was 7.82. C=CCN1C[C@H](C)N([C@@H](c2cccc(O)c2)c2cccc(C(=O)N(CC)CC)c2)C[C@H]1C (relative stereo) [Example 84, (±)-3-((αR*)-α-((2S*,5R*)-4-allyl-2,5-dimethyl-1-piperazinyl)-3-hydroxybenzyl)-N,N-diethylbenzamide] was tested, and the pIC50 was 8.52. Compound C=CCN1C[C@H](C)N([C@H](c2ccc(C(=O)N(CC)CC)cc2)c2cccc(O)c2)C[C@H]1C [Example 6a, (+)-4-((αR)-α-((2S,5R)-4-Allyl-2,5-dimethyl-1-piperazinyl)-3-hydroxybenzyl)-N,N-diethylbenzamide] has a pIC50 of 8.30. For C=CCN1C[C@H](C)N([C@@H](c2cccc(O)c2)c2cccc(C(=O)N(CC)CC)c2)C[C@H]1C [Example 85, (+)-3-((αR)-α-((2S,5R)-4-Allyl-2,5-dimethyl-1-piperazinyl)-3-hydroxybenzyl)-N,N-diethylbenzamide], the pIC50 was 8.49.
